# Patent EP4356928A1, “NUCLEOSIDE DIPHOSPHATE OR DIPHOSPHONATE PRODRUGS, OR NUCLEOSIDE ANALOGUE DIPHOSPHATE OR DIPHOSPHONATE PRODRUGS” (Universität Hamburg, priority 2022, dated 2024)
# Test system: CD4^+ T-cell (CEM)
# Assay: Cytotoxicity: inhibition of CD4+ T-cell (CEM) proliferation
# Settings: ratio between cell toxicity (CC50) and EC50 CEM/TK-
# Method: In addition, a selectivity index (SI) was determined. The selectivity index is the ratio between cell toxicity and […], the ratio between cell toxicity (see Table 4) and EC50 CEM/TK^- (see right column of Table 3).
# Table 4: Cytotoxicity (CC50 [µM]) and selectivity index (SI) of tested prodrug compounds.
compound,measurement,value
"Cc1cn([C@H]2C[C@H](F)[C@@H](CO)O2)c(=O)[nH]c1=O [FLT, alovudine, reference compound]",Selectivity index (SI),>1
